In ChEMBL document CHEMBL3351866, “Indole alkaloid glycosides from the aerial parts of Strobilanthes cusia” (2014):

Test system: Staphylococcus aureus
Experiment: Antibacterial activity against Staphylococcus aureus assessed as growth inhibition after 24 hrs by broth microdilution assay
Type: functional

In the case of GENTAMICIN, the MIC is reported as 0.1 µM.
